Consider one compound from patent publication US9012466B2, “Substituted tricyclic pyrazolo-pyrimidine compounds” (ArQule, Inc., priority 2013, dated 2015).

Chains of the proteins cited; added tags and fusions are not shown.
UniProt Q06187, whole entry: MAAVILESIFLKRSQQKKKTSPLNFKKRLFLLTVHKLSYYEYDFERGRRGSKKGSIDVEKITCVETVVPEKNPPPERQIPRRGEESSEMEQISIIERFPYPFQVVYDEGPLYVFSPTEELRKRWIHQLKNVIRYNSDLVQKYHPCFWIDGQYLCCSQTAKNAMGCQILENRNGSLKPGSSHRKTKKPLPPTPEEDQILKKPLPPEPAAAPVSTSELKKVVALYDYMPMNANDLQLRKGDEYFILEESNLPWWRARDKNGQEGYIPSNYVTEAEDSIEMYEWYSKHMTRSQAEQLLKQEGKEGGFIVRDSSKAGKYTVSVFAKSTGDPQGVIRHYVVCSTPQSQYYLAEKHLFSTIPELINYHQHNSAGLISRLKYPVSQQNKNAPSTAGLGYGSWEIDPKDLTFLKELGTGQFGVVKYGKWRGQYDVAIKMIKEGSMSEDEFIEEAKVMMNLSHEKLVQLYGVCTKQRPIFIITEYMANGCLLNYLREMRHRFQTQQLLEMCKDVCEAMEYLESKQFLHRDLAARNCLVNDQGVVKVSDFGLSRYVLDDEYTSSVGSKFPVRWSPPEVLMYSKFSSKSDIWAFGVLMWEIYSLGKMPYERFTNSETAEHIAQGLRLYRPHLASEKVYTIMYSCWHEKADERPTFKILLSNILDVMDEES
UniProt Q06187, whole entry C481S: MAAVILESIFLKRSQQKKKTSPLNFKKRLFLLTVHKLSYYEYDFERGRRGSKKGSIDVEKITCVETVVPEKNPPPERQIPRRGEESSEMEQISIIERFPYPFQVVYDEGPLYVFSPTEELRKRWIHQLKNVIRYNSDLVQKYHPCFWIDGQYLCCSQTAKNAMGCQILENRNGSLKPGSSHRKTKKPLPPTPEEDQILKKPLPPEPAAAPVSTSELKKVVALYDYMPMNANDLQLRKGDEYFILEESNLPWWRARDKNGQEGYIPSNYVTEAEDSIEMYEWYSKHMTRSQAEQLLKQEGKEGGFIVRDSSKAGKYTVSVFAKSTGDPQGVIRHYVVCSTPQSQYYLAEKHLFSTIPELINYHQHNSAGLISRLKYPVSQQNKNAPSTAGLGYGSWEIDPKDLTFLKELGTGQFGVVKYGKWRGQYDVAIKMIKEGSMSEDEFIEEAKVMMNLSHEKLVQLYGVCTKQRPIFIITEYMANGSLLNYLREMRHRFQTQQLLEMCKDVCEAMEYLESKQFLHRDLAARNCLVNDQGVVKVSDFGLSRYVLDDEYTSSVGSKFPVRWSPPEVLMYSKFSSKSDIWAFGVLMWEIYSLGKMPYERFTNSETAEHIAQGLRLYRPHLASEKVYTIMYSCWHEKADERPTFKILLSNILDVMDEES

One test deals with Full-length inactive BTK (Homo sapiens, UniProt Q06187). Put plainly: BTK Kinase Activity Assay. The following applies: read-out: BTK IC50; AlphaScreen, 25 μM ATP, 30 minute pre-incubation. The protocol:
BTK Kinase Activity Assay
After a 30 minute pre-incubation at room temperature, the kinase reaction was initiated by the addition of 5 μl of an activation mixture diluted in assay buffer containing biotinylated PLCγ2 peptide, DOPS/DOPC, PtdIns(3,4,5)P3, and ATP for final concentrations of 100 nM biotinylated PLCγ2, 5.5 μM DOPS, 5.5 μM DOPC, 0.5 μM PtdIns(3,4,5)P3, and 25 μM ATP. The plates were incubated for 60 minutes at room temperature. The reactions were stopped in the dark by the addition of 10 μl stop/detection mixture prepared in assay buffer containing EDTA and AlphaScreen™ Streptavidin Donor and anti-pTYR100 Acceptor beads. The final concentrations were 10 mM EDTA and 500 ng/well of both AlphaScreen™ (Amplified Luminescent Proximity Homogeneous Assay) technology donor and acceptor beads. Assay plates were incubated for 60 minutes at room temperature in the dark, and the plates were read on a Perkin Elmer Envision Multilabel plate reader (excitation wavelength: […], emission wavelength: 570 nm).
On the technique in general: Bead proximity is the source of the signal in Alpha formats.

For another test, the target named is Full-length BTKC481S (Homo sapiens, UniProt Q06187, C481S). The experiment in a line: BTKC481S Kinase Activity Assay. The following applies: AlphaScreen, 60 μM ATP; test concentration not given. The protocol: BTKC481S Kinase Activity Assay
Test inhibitors and controls (Staurosporine) were prepared in 10% DMSO at 10-fold the desired final concentration, and added to each well of a reaction plate (Corning 96-well half-area solid white nonbinding surface plate) in a volume of 2.5 μl. Full-length BTKC481S was diluted in assay buffer (50 mM Tris, pH 8.0, 0.02 mg/ml BSA, 10 mM MgCl2, 1 mM EGTA, 10% glycerol, 1 mM DTT, 1 mM β-glycerophosphate, and 1 mM NaF) and added to each well in a volume of 17.5 μl for a final concentration in the 25 μl reaction of 10 nM. After a 30 minute pre-incubation at room temperature, the kinase reaction was initiated by the addition of 5 μl of an activation mixture diluted in assay buffer containing biotinylated PLCγ2 peptide, and ATP for final concentrations of 125 nM biotinylated PLCγ2, and 60 μM ATP. The plates were incubated for 60 minutes at room temperature. The reactions were stopped in the dark by the addition of 10 μl stop/detection mixture prepared in assay buffer containing EDTA, Staurosporine and AlphaScreen™ Streptavidin Donor and anti-pTYR100 Acceptor beads. […] Assay plates were incubated for 60 minutes at room temperature in the dark, and the plates were read on a Perkin Elmer Envision Multilabel plate reader (excitation wavelength: […], emission wavelength: 570 nm).

The next test has as its system TMD-8. Put plainly: Anti Proliferation Assay (MTS), TMD-8. The following applies: read-out: MTS/TMD-8, TMD-8 cells, 72 hours treatment. The method, then: (§1) Cell survival was determined by the MTS assay. Briefly, cells were plated in a 96-well plate at 2,000-10,000 cells per well, cultured for 24 hours in complete growth medium, and then treated with various drugs and drug combinations for 72 hours. MTS/PMS was added and incubated for 4 hour, followed by assessment of cell viability using the microplate reader (absorbance at 490 nm). Data were normalized to untreated controls and analyzed with Microsoft Excel.

A further test has as its system Rec-1. Put plainly: Anti Proliferation Assay (MTS), Rec-1. Conditions: read-out: MTS/Rec-1, Rec-1 cells, 72 hours treatment. The protocol: as §1

Turning to `Nc1ccc2c(c1)OCC(CNc1ncc3c4[nH]ncc4c(=O)n(-c4ccccc4)c3n1)O2` (stereo not shown), the IC50 on Full-length inactive BTK amounted to 0.036 µM; in the test on TMD-8 it was 2.2 µM; in the test with Rec-1 it was 19.3 µM. In addition, on Full-length BTKC481S, the “BTK (C481S) (% inhibition)” value is 96.6%.
